Tests used:
[1] = plasma protein binding by ultracentrifugation, monkey plasma; type: in vitro ADME, cynomolgus monkey; details: pH 7.4, 15000 ng/mL, 37° C., 6 hours
From the text: (§1) Such non-covalent binding to albumin is anticipated to slow down the degradation of peptide in plasma and results in decreased renal clearance. […] Pooled plasma was obtained from at least three Sprague Dawley rats, beagle dogs, and cynomolgus monkeys. Pooled human plasma was obtained from three human males (that reportedly had not taken any medication in the previous 7 days before collection). K2EDTA was used as the anticoagulant. The pH of each pool of plasma was adjusted, if needed, to approximately pH 7.4 with hydrochloric acid or sodium hydroxide. Ultracentrifugation was performed using polycarbonate ultracentrifugation tube placed in a S80 AT2 rotor at 37° C. at 357000×g for 6 hours to achieve separation of PUC (supernatant) from plasma proteins. After centrifugation, the PUC was analyzed by LC MS for the calculation of protein binding. Protein Binding was evaluated as Percent unbound=(Cu/Co)×100 and Percent bound=100-percent unbound where Co is the concentration of test article in plasma prior to ultracentrifugation (ng/mL) and Cu is the concentration of test article in plasma in the ultracentrifugate (ng/mL).

DIO-NASH mice = test: DIO-NASH mouse study, 12 weeks of QD dosing; type: in vivo; details: for NAFLD activity score (NAS) reduction compared to the start of treatment: 12 weeks
Experimental: All mice entering the experiment have been pre-biopsied, stratified based on liver biopsy (only animals with fibrosis 1 or above and steatosis 2 or above are included) animals stratified into groups based on Col1a1 immunostaining. […] Body weight (BW) was measured daily for the entire study period, food intake daily for the first 14 days then weekly until study end. Terminal plasma was measured for ALT/AST/TG/TC levels. Terminal liver removal and sampling was carried out for pre to post NAFLD Activity Score (NAS; HE staining) including Fibrosis Stage (Picrosirius red, PSR). Terminal histology was carried out for steatosis, Col1a1 and galectin-3 quantitation. Terminal liver workup included TG+TC (extraction and measurement). Terminal liver biopsies were set up in: 1) 4% PFA for histology, 2) fresh frozen liver for biochemistry, 3) fresh frozen liver for RNA extraction and RNAseq.

DIO JAX mice = DIO JAX mice study (blood glucose, IPGTT, body weight, body composition); type: in vivo, mouse
From the text: B. In vivo assays using “DIO JAX” mice. Eighty-one (81) 18 week-old male C57BL/6J mice, fed a high fat diet (Research Diets D12492) from the age of 6 weeks, were transferred to Jackson in vivo research laboratory (Sacramento, Calif.). […] Cages were changed every two weeks. […] The animal rooms were set to have 15 air exchanges per hour. Before study initiation, all mice continued on the high fat diet (60% kcal; D12492) and were acclimated for four weeks. On the morning of Study Day −1, baseline body composition was determined for each mouse via NMR analysis. Sixty-three (63) mice were grouped into seven groups (n=9). Remaining ungrouped mice were euthanized. Subcutaneous dosing of compounds was done on alternate days. On the morning of Study Day 0, pre-dose blood glucose measurements were taken via glucometer and the mice were dosed according to Table 7 below, with dose time recorded. Blood glucose measurements were taken at 1, 2, 4, 8, 10, and 24 hours post-dose. After study day 1, pre-dose blood glucose was measured on days 4, 7, 9, 11, 13, 17, 21 and 25. Body weights and clinical observations were recorded every 2 days. Food intake in all groups was measured daily, following dosing. First food intake measurement was on Study Day −1. Group 4 was pair-fed to Group 3 and Group 7 was pair-fed to Group 6. The amount of food for Groups 4 and 7 was dictated by the average amount of food consumed in the previous 24-hour window by Groups 3 and 6, respectively. Food intake for Groups 1, 2, 3, 5 and 6 were provided ad lib and measured daily. On Study Day 27, the mice were fasted for 5 hours and a glucose tolerance test (GTT) was performed. All mice were IP dosed with a bolus of glucose (2 g/kg) and blood glucose was assessed pre-dose and 15, 30, 60, 90, and 120 minutes post-dose. All blood glucose values were entered in the GTT Blood Glucose Log.

plasma proteins = test: plasma protein binding by ultracentrifugation, rat plasma; type: in vitro ADME; details: Sprague Dawley, pooled plasma, pH 7.4, 15000 ng/mL, 37° C., 6 hours, read-out: mean percent protein binding (converted)
From the text: as §1

DIO rats = test: 28-day body weight study in DIO CRL:CD(SD) rats; type: in vivo, rat; details: for body weight loss: 28 days
From the text: Fifty-four male DIO CRL:CD rats, approximately 14-15 weeks of age upon study initiation, were enrolled in the study at Charles River Laboratories (Shrewsbury, Mass.). […] Food consumption was monitored on Study Days −1 through Study Days 27 (Main Study) or Day 41 (Recovery) by weighing the food and hopper together. The mean value of food consumption for Group 2 determined the amount of food made available to Group 3 in the subsequent feeding session. Similarly, the mean value of food consumed for Group 5 determined the quantity of food available for Group 6 in the subsequent feeding session. Food and drinking water were provided ad libitum throughout the study with the exception of the 5-h fasting periods occurring on Study Days 1, 28, and 42. Animals were randomized into groups based on body weight and non-fasted blood glucose (BG) data collected on Study Day −1. […] The total group dependent dose volume (mL/kg) was based on the most recently recorded body wt. Individual animal body weights were recorded beginning on Day −1. […] On Study Days −1, 1, 3-27, 29, and 36 a 3 μL drop of whole blood was collected via tail snip for assessment of blood glucose using a handheld glucometer (Alpha Trak 2, Abbot). […] Additionally, on Study Day 28 following a 5-hour fast, animals were administered a 10 mL/kg dose of glucose (2 g/kg) via intraperitoneal injection. […] Samples for glucose were read using a handheld glucometer.

[2] = physical stability of F58 formulation at +2-8° C. (appearance, RP-HPLC); type: physicochemical
Experimental: F58 is stored at −20° C. […] ALT-801 is a peptide amphiphile formed by the covalent attachment of the hydrophobic alkyl chain of EuPort (e.g., functionalized non-ionic glycolipid surfactant) to the hydrophilic peptide portion. As such, ALT-801 is intended to self-assemble into supramolecular structures such as micelles.

## CC[C@H](C)[C@H](NC(=O)[C@H](Cc1ccccc1)NC(=O)[C@H](CCC(=O)O)NC(=O)[C@@H]1CCCCNC(=O)CC[C@H](NC(=O)[C@H](CC(=O)O)NC(=O)[C@H](CC(C)C)NC(=O)[C@H](Cc2ccc(O)cc2)NC(=O)[C@H](CCCCN)NC(=O)[C@H](CO)NC(=O)[C@H](Cc2ccc(O)cc2)NC(=O)[C@H](CC(=O)O)NC(=O)[C@H](CO)NC(=O)[C@@H](NC(=O)[C@H](Cc2ccccc2)NC(=O)[C@@H](NC(=O)CNC(=O)[C@H](CCC(N)=O)NC(=O)C(C)(C)NC(=O)[C@@H](N)Cc2c[nH]cn2)[C@@H](C)O)[C@@H](C)O)C(=O)N[C@@H](CCCCNC(=O)[C@H]2O[C@@H](OCCCCCCCCCCCCCCCCCC(=O)O)[C@H](O)[C@@H](O)[C@@H]2O)C(=O)N[C@@H](C)C(=O)N[C@@H](C)C(=O)N1)C(=O)N[C@@H](CCC(N)=O)C(=O)N[C@@H](Cc1c[nH]c2ccccc12)C(=O)N[C@@H](CC(C)C)C(=O)N[C@@H](CC(C)C)C(=O)N[C@@H](CCC(N)=O)C(=O)N[C@H](C(N)=O)[C@@H](C)O [SEQ ID NO: 1]
[1]
  fraction unbound: 0.000487
DIO-NASH mice; ALT-801 5 and 10 nmol/kg, elafibranor 78 μmol/kg, semaglutide 10 nmol/kg
  body weight compared to NASH control (p≤0.001): statistically significantly decreased body weight
DIO-NASH mice; NASH mice, 5 nmol/kg SC QD
  NAFLD activity score (NAS) reduction compared to the start of treatment: 32%
DIO-NASH mice; NASH mice, 10 nmol/kg SC QD
  body weight reached (lean normal body weight range): ~30 g
  NAFLD activity score (NAS) reduction compared to the start of treatment: 61%
DIO-NASH mice; NASH mice, 10 nmol/kg group
  NAS scores achieved by all animals: ≤ 3
DIO-NASH mice; NASH mice, liver RNAseq
  expression of cell death genes vs NASH vehicle control: suppression of cell death genes
  expression of genes affecting fat usage and transport vs NASH vehicle control: modulation of genes affecting fat usage and transport
  expression of liver inflammation genes (FOSB, JUN, TLR4) vs NASH vehicle control: suppression of liver inflammation genes
  expression of stellate cell pathway pro-fibrosis genes vs NASH vehicle control: suppression of stellate cell pathway pro-fibrosis genes
DIO-NASH mice; NASH mice, low and high dose
  liver TC level vs NASH vehicle control, semaglutide and elafibranor (p<0.0001): significantly lower
  liver TG level vs NASH vehicle control, semaglutide and elafibranor (p<0.01): significantly lower
  liver weight vs NASH vehicle control, semaglutide and elafibranor (p<0.01): significantly decreased liver weight
  terminal liver Col1A1 level vs NASH vehicle control, elafibranor and semaglutide (p<0.0001): significantly lower
  terminal liver Galectin-3 level vs NASH vehicle control, elafibranor and semaglutide (p<0.0001): significantly lower
  terminal plasma ALT levels vs NASH vehicle control, elafibranor and semaglutide (p<0.01): significantly lower
  terminal plasma AST levels vs NASH vehicle control (p<0.001): significantly lower
DIO-NASH mice; NASH mice, low and high dose, end of treatment
  fat content of the livers: reduction in the fat content of the livers
DIO-NASH mice; NASH mice, high dose ALT-801, elafibranor, semaglutide
  number of differentially expressed genes (liver RNA sequencing): ~8000
DIO JAX mice; 12 nmol/kg dose
  weight loss: more than 25%
DIO JAX mice; FIG. 7
  fat loss: 51%
  lean loss: about 12%
DIO JAX mice; day 27, low and high dose
  glucose excursion in IPGTT (2 g/kg IP glucose): blunted glucose excursion
DIO JAX mice; high dose 12 nmol/kg SC every 2 days
  blood glucose levels during repeated dosing: suppressed to the normoglycemic range from day seven (7) through the last measurement at day 26
DIO JAX mice; low and high dose (6 and 12 nmol/kg) SC
  time post-dose at which blood glucose reached the normoglycemic range: ≤ 4 h
Plasma proteins
  fraction unbound at 6 h, 15000 ng/mL: 0.002
DIO rats; 6 nmol/kg QD sc
  body weight loss: −24%
DIO rats; 12 nmol/kg QD sc
  feeding suppression: more sustained feeding suppression
  liver weight as % of body weight at 28 days: 2.4%
  liver weight at 28 days: 8.9 g
  body weight loss: −40%
DIO rats; low dose 6 nmol/kg QD sc
  liver weight as % of body weight at 28 days: 2.5%
  liver weight at 28 days: 11.5 g
[2]
  purity and content by RP-HPLC of the hazy formulation: unchanged

From patent US20210290732A1, “GLP-1R and GCGR Agonists, Formulations, and Methods of Use” (Spitfire Pharma LLC, priority 2020, published 2021)
